Values quoted from earlier work in patent US20110311455A1, “EN[…] GUIDED IMAGING AND THERAPIES” (THE REGENTS OF THE UNIVERSITY OF CALIFORNIA, priority 2008, published 2011).

Settings: freely dissolved ICG; rapid initial phase of bi-exponential clearance; cited from earlier work

CC1(C)C(/C=C/C=C/C=C/C=C2\N(CCCCS(=O)(=O)O)c3ccc4ccccc4c3C2(C)C)=[N+](CCCCS(=O)(=O)[O-])c2ccc3ccccc3c21 [ICG, indocyanine green]
plasma clearance half-life: 3 to 4 min
